Data from patent US20180030537A1, “PUMA, A PRO-APOPTOTIC GENE, AS A NOVEL MOLECULAR BIOMARKER FOR TNFALPHA-INDUCED HUMAN ISLET DAMAGE” (CITY OF HOPE, priority 2010, published 2018).

Tested on: acinar cells
Assay: TNF-α stimulation of human acinar cells, mRNA quantification
Type: cell-based
Conditions: 1, 5, 50 ng/ml
Method: FIGS. 8A-L. TNF-α induces PUMA expression in human islets and acinar cells. FIG. 8A) TNF-α induced Bcl-2 family mRNA in islets. Single islets were stimulated with or without 50 ng/ml TNF-α for 16 hours. Each dot indicates the result of one islet lot tested in hextuplicate. The tests were performed using 4 different human islet lots. Bars indicate the mean of 4 lots. Each gene expression was normalized by ACTB (a gene encoding β actin), and the fold increase was calculated by dividing TNF-α treated islets by control islets (*p<0.01, n=4). […] FIGS. 8B-D) PUMA (FIG. 8B), IL-8 (FIG. 8C) and TNF-α (FIG. 8D) expression from single human islets (n=6) stimulated with 0 (open circles), 1 (solid triangles), 5 (solid squares) and 50 ng/ml (solid circles) TNF-α for 0, 1, 4, 16 hours in 3 independent cases. Dose dependent expression of (FIG. 8E) PUMA, (FIG. 8F) IL-8 and (FIG. 8G) TNF-α in human islet at the 4 hour time point (n=3). The PUMA expression in human islets was elevated by TNF-α as early as one hour, increased during the next 4 hours, and maintained at the similar level for 16 hours. […] (FIG. 8H) PUMA, (FIG. 8I) IL-8 and (FIG. 8J) TNF-α mRNA expression in acinar cells, in triplicate, stimulated with 0 (open circles), 1 (solid triangles), 5 (solid squares) and 50 (solid circles) ng/ml TNF-α for 0, 1, 4, 16 hours. Representative data from two independent cases is shown. (FIG. 8K) PUMA and (FIG. 8L) IL-8 expression in human islets stimulated with or without TNF-α (1, 5, 50 ng/ml) and/or IFNγ (10, 100, 1000 U/ml) for 4 hours. When combined with TNF-α, IFNγ strongly augmented TNF-α mediated PUMA expression. PUMA expression is highest for TNF-α at 50 ng/ml+IFNγ at 1000 U/ml. […] All data are presented as a mean±standard error. […] However, unlike in the islets, the expression of PUMA and IL-8 reached to the peak level by 4 hours and decreased to the basal level by 16 hours. […]

TNF-α: recombinant human (or rat, for INS-1) TNF-α, R&D Systems; cytokine stimulus
increased: TNF mRNA expression in acinar cells (FIG. 8J) | PUMA mRNA expression in acinar cells (peak by 4 hours, basal by 16 hours, FIG. 8H) | IL-8 mRNA expression in acinar cells (peak by 4 hours, basal by 16 hours, FIG. 8I)
